Test results as given in PMC11079024, “Identification of a family of species-selective complex I inhibitors as potential anthelmintics” (Nature Communications, 2024).
Where “and” joins values, the source holds several entries; their conditions need not be identical. Equal values may be shown once. Read-outs that look alike come from different tables or passages of the source.

Chains of the proteins cited; added tags and fusions are not shown. Lines headed by an entry give the natural chain unless they say otherwise; changes in a name come on top. Residues count along the entry.
UniProt P24887: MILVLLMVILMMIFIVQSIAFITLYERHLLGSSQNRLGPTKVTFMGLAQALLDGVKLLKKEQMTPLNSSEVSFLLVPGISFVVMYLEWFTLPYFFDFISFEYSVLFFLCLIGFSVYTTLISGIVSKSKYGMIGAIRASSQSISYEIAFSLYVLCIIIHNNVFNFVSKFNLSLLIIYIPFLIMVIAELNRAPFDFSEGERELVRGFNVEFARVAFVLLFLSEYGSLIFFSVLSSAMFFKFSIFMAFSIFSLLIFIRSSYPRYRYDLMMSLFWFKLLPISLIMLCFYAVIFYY
UniProt Q93873, 31-482: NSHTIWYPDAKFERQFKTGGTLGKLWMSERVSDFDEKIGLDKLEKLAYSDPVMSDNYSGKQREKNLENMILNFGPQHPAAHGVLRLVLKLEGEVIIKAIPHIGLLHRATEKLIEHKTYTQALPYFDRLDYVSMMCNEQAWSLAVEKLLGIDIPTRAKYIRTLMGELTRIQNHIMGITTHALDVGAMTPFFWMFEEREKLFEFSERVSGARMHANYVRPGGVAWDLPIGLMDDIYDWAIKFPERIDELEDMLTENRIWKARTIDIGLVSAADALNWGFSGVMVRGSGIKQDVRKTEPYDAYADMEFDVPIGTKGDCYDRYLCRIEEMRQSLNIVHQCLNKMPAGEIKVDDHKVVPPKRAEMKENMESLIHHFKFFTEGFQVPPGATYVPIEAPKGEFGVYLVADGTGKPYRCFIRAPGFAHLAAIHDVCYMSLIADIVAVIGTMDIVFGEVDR
UniProt Q94360, 17-199: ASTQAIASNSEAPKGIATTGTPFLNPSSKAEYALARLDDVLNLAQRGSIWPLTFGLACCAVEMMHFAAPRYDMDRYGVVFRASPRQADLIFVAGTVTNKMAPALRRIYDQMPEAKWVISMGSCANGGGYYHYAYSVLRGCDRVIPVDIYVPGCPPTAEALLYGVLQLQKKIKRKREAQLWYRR
UniProt P03887, whole entry: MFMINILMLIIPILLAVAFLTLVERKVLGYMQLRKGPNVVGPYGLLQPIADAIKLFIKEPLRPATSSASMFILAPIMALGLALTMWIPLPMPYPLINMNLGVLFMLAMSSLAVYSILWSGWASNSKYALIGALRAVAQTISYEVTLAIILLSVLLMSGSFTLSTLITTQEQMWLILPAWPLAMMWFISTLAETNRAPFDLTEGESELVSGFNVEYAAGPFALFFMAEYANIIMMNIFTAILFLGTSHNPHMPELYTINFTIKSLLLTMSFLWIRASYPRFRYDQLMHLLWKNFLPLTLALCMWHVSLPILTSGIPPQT
UniProt P17694, 34-463: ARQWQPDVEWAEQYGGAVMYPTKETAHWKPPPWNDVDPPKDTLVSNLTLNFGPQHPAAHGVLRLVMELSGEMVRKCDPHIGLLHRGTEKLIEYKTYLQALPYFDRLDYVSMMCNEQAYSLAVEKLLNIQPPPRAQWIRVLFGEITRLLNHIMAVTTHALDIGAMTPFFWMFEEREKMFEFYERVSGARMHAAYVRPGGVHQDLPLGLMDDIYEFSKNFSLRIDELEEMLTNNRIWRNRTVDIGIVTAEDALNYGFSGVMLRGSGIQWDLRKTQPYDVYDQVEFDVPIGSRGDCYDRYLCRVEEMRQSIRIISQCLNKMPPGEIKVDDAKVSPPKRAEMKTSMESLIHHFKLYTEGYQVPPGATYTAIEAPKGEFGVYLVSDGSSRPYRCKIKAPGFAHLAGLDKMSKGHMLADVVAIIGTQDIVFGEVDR
UniProt P42026, 38-216: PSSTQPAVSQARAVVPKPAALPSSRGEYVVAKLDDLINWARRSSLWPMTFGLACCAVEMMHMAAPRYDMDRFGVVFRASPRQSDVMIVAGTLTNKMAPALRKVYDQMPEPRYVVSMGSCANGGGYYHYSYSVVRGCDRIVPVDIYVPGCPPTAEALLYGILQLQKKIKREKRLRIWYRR

Key:
[1] = molecular target: C. elegans (N2) complex I (NADH:ubiquinone oxidoreductase) (Caenorhabditis elegans, UniProt P24887+Q93873+Q94360); test: biochemical; assay type: biochemical; conditions: for percent in vitro complex I activity relative to solvent control, single replicates / in vitro complex I activity relative to solvent control, individual replicate: wild-type C. elegans; for percent in vitro complex I activity relative to solvent control, single replicates: individual Rep1-Rep4; for percent (%) in vitro complex I activity relative to solvent control / in vitro complex I activity relative to solvent control, individual replicate: single replicate
[2] = molecular target: B. taurus (heart) complex I (Bos taurus, UniProt P03887+P17694+P42026); assay type: biochemical; conditions: B. taurus (heart) mitochondria, single replicate

CC(C)Cc1ccc(C(C)c2nc3ccccc3n2C)cc1 (stereo not drawn) [NPD8790]
percent in vitro complex I activity relative to solvent control, single replicates ([1]; 0.0001 µM): 97.870% and 95.739% and 92.719%
percent in vitro complex I activity relative to solvent control, single replicates ([1]; 0.0005 µM): 90.969% and 97.532% and 92.512%
percent in vitro complex I activity relative to solvent control, single replicates ([1]; 0.001 µM): 83.219% and 91.266% and 96.839%
percent in vitro complex I activity relative to solvent control, single replicates ([1]; 0.0025 µM): 90.827% and 101.498% and 95.636%
percent in vitro complex I activity relative to solvent control, single replicates ([1]; 0.005 µM): 86.940% and 98.013% and 97.085%
percent in vitro complex I activity relative to solvent control, single replicates ([1]; 0.013 µM): 96.926% and 100.438% and 126.374% and 98.338%
percent in vitro complex I activity relative to solvent control, single replicates ([1]; 0.025 µM): 91.986% and 102.062% and 97.044%
percent in vitro complex I activity relative to solvent control, single replicates ([1]; 0.063 µM): 107.116% and 82.196% and 89.540% and 103.686%
percent (%) in vitro complex I activity relative to solvent control ([1]; 0.125 µM, N2 wild-type mitochondria, Fig. 4d data set): 95.717% and 104.220% and 103.057% and 85.253% and 97.270%
percent (%) in vitro complex I activity relative to solvent control ([1]; 0.125 µM, wild-type C. elegans mitochondria): 97.270%
percent in vitro complex I activity relative to solvent control, single replicates ([1]; 0.125 µM): 85.253% and 97.270% and 89.801%
percent (%) in vitro complex I activity relative to solvent control ([1]; 0.313 µM, N2 wild-type mitochondria, Fig. 4d data set): 85.173% and 99.628% and 103.925% and 106.363% and 71.287% and 78.952%
percent (%) in vitro complex I activity relative to solvent control ([1]; 0.313 µM, wild-type C. elegans mitochondria): 78.952% and 113.711%
percent in vitro complex I activity relative to solvent control, single replicates ([1]; 0.313 µM): 71.287% and 78.952% and 90.969%
percent (%) in vitro complex I activity relative to solvent control ([1]; 0.625 µM, N2 wild-type mitochondria, Fig. 4d data set): 92.700% and 94.786% and 94.946% and 107.174% and 89.930% and 79.859%
percent (%) in vitro complex I activity relative to solvent control ([1]; 0.625 µM, wild-type C. elegans mitochondria): 79.859% and 81.110%
percent in vitro complex I activity relative to solvent control, single replicates ([1]; 0.625 µM): 89.930% and 79.859% and 64.888%
percent (%) in vitro complex I activity relative to solvent control ([1]; 1.5 µM, N2 wild-type mitochondria, Fig. 4d data set): 90.096% and 79.702% and 84.446% and 77.043% and 77.079% and 65.007%
percent (%) in vitro complex I activity relative to solvent control ([1]; 1.5 µM, wild-type C. elegans mitochondria): 85.561% and 65.007% and 66.965%
percent in vitro complex I activity relative to solvent control, single replicates ([1]; 1.5 µM): 85.561% and 77.079% and 65.007% and 53.572%
percent (%) in vitro complex I activity relative to solvent control ([1]; 3 µM, N2 wild-type mitochondria, Fig. 4d data set): 67.855% and 64.339% and 74.730% and 68.247% and 50.593% and 43.869%
percent (%) in vitro complex I activity relative to solvent control ([1]; 3 µM, wild-type C. elegans mitochondria): 63.902% and 43.869% and 49.754%
percent in vitro complex I activity relative to solvent control, single replicates ([1]; 3 µM): 63.902% and 50.593% and 43.869% and 39.804%
percent (%) in vitro complex I activity relative to solvent control ([1]; 7.5 µM, N2 wild-type mitochondria, Fig. 4d data set): 29.825% and 31.471% and 31.992% and 31.566% and 29.179% and 11.826%
percent (%) in vitro complex I activity relative to solvent control ([1]; 7.5 µM, wild-type C. elegans mitochondria): 26.429% and 11.826% and 16.504%
percent in vitro complex I activity relative to solvent control, single replicates ([1]; 7.5 µM): 26.429% and 29.179% and 11.826% and 13.203%
percent (%) in vitro complex I activity relative to solvent control ([1]; 15 µM, N2 wild-type mitochondria, Fig. 4d data set): 8.829% and 13.873% and 13.052% and 7.424% and 9.250% and 1.000%
percent (%) in vitro complex I activity relative to solvent control ([1]; 15 µM, wild-type C. elegans mitochondria): 18.930% and 1.000% and 3.561%
percent in vitro complex I activity relative to solvent control, single replicates ([1]; 15 µM): 18.930% and 9.250% and 1.000% and 2.848%
percent (%) in vitro complex I activity relative to solvent control ([1]; 37.5 µM, N2 wild-type mitochondria, Fig. 4d data set): 6.621% and 10.335% and 5.250% and 2.308% and 3.323% and 2.205%
percent (%) in vitro complex I activity relative to solvent control ([1]; 37.5 µM, wild-type C. elegans mitochondria): 4.585% and 2.205% and 4.866%
percent in vitro complex I activity relative to solvent control, single replicates ([1]; 37.5 µM): 4.585% and 3.323% and 2.205% and 3.893%
remaining activity at 75 µM ([1]; 75 µM, wild-type C. elegans mitochondria, mean of replicates, read-out: percent (%) in vitro complex I activity relative to solvent control): 12.3%
percent (%) in vitro complex I activity relative to solvent control ([1]; 75 µM, wild-type C. elegans mitochondria): 5.354% and 12.186% and 19.314%
percent in vitro complex I activity relative to solvent control, single replicates ([1]; 75 µM): 5.354% and 20.312% and 12.186% and 15.451%
remaining activity at 75 µM ([1]; C. elegans mitochondria, 75 µM, Mean of replicates, read-out: in vitro complex I activity relative to solvent control): 12.3%
remaining activity at 75 µM ([1]; C. elegans mitochondria, 75 µM, Mean, read-out: in vitro complex I activity relative to solvent control): 12.3%
activity at 0.013 µM ([1]; C. elegans, dose 0.013 µM, Mean of replicates, read-out: Complex I activity, dose-response data): 115%
activity at 75 µM ([1]; C. elegans, dose 75 µM, Mean of replicates, read-out: Complex I activity, dose-response data): 12.3%
in vitro complex I activity relative to solvent control, individual replicate ([1]; dose 0.0001 µM): 97.870% and 95.739% and 92.719%
in vitro complex I activity relative to solvent control, individual replicate ([1]; dose 0.0005 µM): 90.969% and 97.532% and 92.512%
in vitro complex I activity relative to solvent control, individual replicate ([1]; dose 0.001 µM): 83.219% and 91.266% and 96.839%
in vitro complex I activity relative to solvent control, individual replicate ([1]; dose 0.0025 µM): 90.827% and 101.498% and 95.636%
in vitro complex I activity relative to solvent control, individual replicate ([1]; dose 0.005 µM): 86.940% and 98.013% and 97.085%
in vitro complex I activity relative to solvent control, individual replicate ([1]; dose 0.013 µM): 96.926% and 100.438% and 126.374% and 98.338%
in vitro complex I activity relative to solvent control, individual replicate ([1]; dose 0.025 µM): 91.986% and 102.062% and 97.044%
in vitro complex I activity relative to solvent control, individual replicate ([1]; dose 0.063 µM): 107.116% and 82.196% and 89.540% and 103.686%
in vitro complex I activity relative to solvent control, individual replicate ([1]; dose 0.125 µM): 85.253% and 97.270% and 89.801%
in vitro complex I activity relative to solvent control, individual replicate ([1]; dose 0.313 µM): 71.287% and 78.952% and 90.969%
in vitro complex I activity relative to solvent control, individual replicate ([1]; dose 0.625 µM): 89.930% and 79.859% and 64.888%
in vitro complex I activity relative to solvent control, individual replicate ([1]; dose 1.5 µM): 85.561% and 77.079% and 65.007% and 53.572%
in vitro complex I activity relative to solvent control, individual replicate ([1]; dose 3 µM): 63.902% and 50.593% and 43.869% and 39.804%
in vitro complex I activity relative to solvent control, individual replicate ([1]; dose 7.5 µM): 26.429% and 29.179% and 11.826% and 13.203%
in vitro complex I activity relative to solvent control, individual replicate ([1]; dose 15 µM): 18.930% and 9.250% and 1.000% and 2.848%
in vitro complex I activity relative to solvent control, individual replicate ([1]; dose 37.5 µM): 4.585% and 3.323% and 2.205% and 3.893%
in vitro complex I activity relative to solvent control, individual replicate ([1]; dose 75 µM): 5.354% and 20.312% and 12.186% and 15.451%
percent (%) in vitro complex I activity relative to solvent control ([2]; 0.125 µM): 111.398% and 110.709% and 87.488% and 92.420%
percent (%) in vitro complex I activity relative to solvent control ([2]; 0.313 µM): 118.464% and 105.228% and 106.985%
percent (%) in vitro complex I activity relative to solvent control ([2]; 0.625 µM): 106.273% and 97.568% and 112.424%
percent (%) in vitro complex I activity relative to solvent control ([2]; 1.5 µM): 108.615% and 114.555% and 94.027% and 109.488%
